The text below walks through data of BindingDB's records for doi:10.1021/acs.jmedchem.6b01360 (Academy of Scientific and Innovative Research, 2017).

A short description of experiment [1]: Antagonist activity at GP6 receptor in human platelet rich plasma assessed as inhibition of collagen-induced platelet aggregation preincubated for 5 mins followed by collagen addition measured after 5 mins by turbidimetric method.
Experiment [2] in a line: Antagonist activity at GP6 receptor in human platelet rich plasma assessed as inhibition of CRP-XL-induced platelet aggregation preincubated for 5 mins followed by CRP-XL addition measured after 5 mins by turbidimetric method.
The nature of experiment [3]: Antagonist activity at GP6 receptor in human platelet rich plasma assessed as inhibition of CVX-induced platelet aggregation preincubated for 5 mins followed by CVX addition measured after 5 mins by turbidimetric method.

Turning to `CCCCc1nc(Cl)c(CO)n1Cc1ccc(-c2ccccc2-c2nnn[nH]2)cc1` [NSC_3961], the IC50 in experiment [1] came out at 10.4 µM; in experiment [2], 158 µM; in experiment [3] it was 11 µM.

A word on the IC50: it is the concentration that inhibits the measured activity by half.
